Experimental data published in paper PMC11806106.

Amino acid sequences for entries named in this document (tags omitted). Residues count along the entry.
UniProt P41146, 1-351: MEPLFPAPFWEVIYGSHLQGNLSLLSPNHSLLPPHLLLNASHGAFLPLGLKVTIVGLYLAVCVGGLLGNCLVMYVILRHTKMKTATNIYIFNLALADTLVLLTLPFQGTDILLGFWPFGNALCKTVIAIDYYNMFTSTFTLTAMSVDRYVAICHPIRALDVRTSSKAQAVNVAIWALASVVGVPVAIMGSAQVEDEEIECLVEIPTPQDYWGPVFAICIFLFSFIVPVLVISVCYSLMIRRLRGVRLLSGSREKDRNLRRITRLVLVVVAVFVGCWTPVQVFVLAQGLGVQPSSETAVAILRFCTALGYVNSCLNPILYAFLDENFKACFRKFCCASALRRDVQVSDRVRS
UniProt P41145, 1-363: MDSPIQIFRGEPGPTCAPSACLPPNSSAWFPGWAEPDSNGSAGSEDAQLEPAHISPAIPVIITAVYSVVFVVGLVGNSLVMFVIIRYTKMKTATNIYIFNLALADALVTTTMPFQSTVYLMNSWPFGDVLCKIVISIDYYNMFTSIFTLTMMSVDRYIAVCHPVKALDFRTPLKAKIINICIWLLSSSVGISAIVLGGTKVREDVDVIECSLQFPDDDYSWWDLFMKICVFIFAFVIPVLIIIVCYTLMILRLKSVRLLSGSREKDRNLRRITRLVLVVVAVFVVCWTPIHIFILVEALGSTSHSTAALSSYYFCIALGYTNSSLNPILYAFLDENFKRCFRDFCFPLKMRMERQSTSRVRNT

Legend:
[1] = target: NOP FRET sensor (human nociceptin/orphanin FQ receptor with sYFP2 in intracellular loop 3 and mTurquoise2 at the truncated C-terminus) (human) (UniProt P41146)
[2] = target: KOR FRET sensor (human kappa opioid receptor with sYFP2 in intracellular loop 3 and mTurquoise2 at the truncated C-terminus) (human) (UniProt P41145)
[3] = target: KOR BRET sensor (KOR sensor with mTurq2 replaced by nLuc2) (human) (UniProt P41145)

Row | Substance | EC50 of the agonist-induced change of the FRET emission ratio of the NOP FRET conformation sensor (96-well plate reader) [1] [nM] | EC50 of the agonist-induced change of the FRET emission ratio of the KOR FRET conformation sensor (96-well plate reader) [2] [nM] | EC50 of the agonist-induced change of the BRET ratio of the KOR BRET conformation sensor [3] [nM]
1 | nociceptin (1–13) amide (peptide) | 63 |  | 
2 | dynorphin A (peptide) |  | 219 | 209
